From patent US10100019B2

System: Ba/F3 EML4-ALK L1196M cells
Assay type: cell-based, rodent
Conditions: not given

**Q.** How did the “BaF3 EML4 ALK L1196M” value turn out when `COc1cc(C(C)(C)C#N)c(C)cc1Nc1ncc(Cl)c(Nc2ccccc2S(=O)(=O)C(C)C)n1` [Example 54, 2-(4-((5-chloro-4-((2-(isopropylsulfonyl)phenyl)amino)pyrimidine-2-yl)amino)-5-methoxy-2-methylphenyl)-2-methylpropanenitrile] was run?
**A.** Its value is 0.44 µM.

**Q.** With `CNCC(C)(C)c1cc(OC)c(Nc2ncc(Cl)c(Nc3ccccc3S(=O)(=O)C(C)C)n2)cc1C` [Example 60, 5-chloro-N4-(2-(isopropylsulfonyl)phenyl)-N2-(2-methoxy-5-methyl-4-(2-methyl-1-(methylamino)propane-2-yl)phenyl)pyrimidine-2,4-diamine] as the molecule, how does the “BaF3 EML4 ALK L1196M” value read?
**A.** The value was 0.068 µM.

**Q.** How did the “BaF3 EML4 ALK L1196M” value turn out when `COc1cc(C(C)(C)CN(C)C)c(C)cc1Nc1ncc(Cl)c(Nc2ccccc2S(=O)(=O)C(C)C)n1` [Example 65, 5-chloro-N2-(4-(1-(dimethylamino)-2-methylpropane-2-yl)-2-methoxy-5-methylphenyl)-N4-(2-(isopropylsulfonyl)phenyl)pyrimidine-2,4-diamine] was run?
**A.** Its value is 0.066 µM.

**Q.** How did the “BaF3 EML4 ALK L1196M” value turn out when `COc1cc(CN(C)C)c(C)cc1Nc1ncc(Cl)c(Nc2ccccc2S(=O)(=O)C(C)C)n1` [Example 70, 5-chloro-N2-(4-((dimethylamino)methyl)-2-methoxy-5-methylphenyl)-N4-(2-(isopropylsulfonyl)phenyl)pyrimidine-2,4-diamine] was run?
**A.** Its value is 0.066 µM.

**Q.** `C=C(C)c1cc(OCC)c(Nc2ncc(Cl)c(Nc3ccccc3S(=O)(=O)C(C)C)n2)cc1CCN` [Example 74, N2-(5-(2-aminoethyl)-2-ethoxy-4-(prop-1-ene-2-yl)phenyl)-5-chloro-N4-(2-(isopropylsulfonyl)phenyl)pyrimidine-2,4-diamine] was tested. Which “BaF3 EML4 ALK L1196M” value did it give?
**A.** The value was 1.60 µM.

Same assay, conditions: Ba/F3 EML4-ALK L1196M cells; method as Experimental Example 4; type of value not given

**Q.** With `COc1cc(CCN(C)C)c(C)cc1Nc1ncc(Cl)c(Nc2ccccc2S(=O)(=O)C(C)C)n1` [Example 58, 5-chloro-N2-(4-(2-(dimethylamino)ethyl)-2-methoxy-5-methylphenyl)-N4-(2-(isopropylsulfonyl)phenyl)pyrimidine-2,4-diamine] as the molecule, how does the “BaF3 EML4 ALK L1196M” value read?
**A.** The value was 0.035 µM.

**Q.** `COc1cc(C(C)(C)NC=O)c(C)cc1Nc1ncc(Cl)c(Nc2ccccc2S(=O)(=O)C(C)C)n1` [Example 61, N-(2-(4-((5-chloro-4-((2-(isopropylsulfonyl)phenyl)amino)pyrimidine-2-yl)amino)-5-methoxy-2-methylphenyl)propane-2-yl)formamide] was tested. Which “BaF3 EML4 ALK L1196M” value did it give?
**A.** Its value is 0.081 µM.

**Q.** With `CNC(C)(C)c1cc(OC)c(Nc2ncc(Cl)c(Nc3ccccc3S(=O)(=O)C(C)C)n2)cc1C` [Example 64, 5-chloro-N4-(2-(isopropylsulfonyl)phenyl)-N2-(2-methoxy-5-methyl-4-(2-(methylamino)propane-2-yl)phenyl)pyrimidine-2,4-diamine] as the molecule, how does the “BaF3 EML4 ALK L1196M” value read?
**A.** The value was 0.066 µM.

**Q.** How did the “BaF3 EML4 ALK L1196M” value turn out when `COc1cc(-c2ccccc2)c(CCN)cc1Nc1ncc(Cl)c(Nc2ccccc2S(=O)(=O)C(C)C)n1` [Example 67] was run?
**A.** The value was 0.39 µM.

**Q.** `COc1cc(C[N+](C)(C)C)c(C)cc1Nc1ncc(Cl)c(Nc2ccccc2S(=O)(=O)C(C)C)n1` [Example 69, 1-(4-((5-chloro-4-((2-(isopropylsulfonyl)phenyl)amino)pyrimidine-2-yl)amino)-5-methoxy-2-methylphenyl)-N,N,N-trimethylmethanealuminum iodide] was tested. Which “BaF3 EML4 ALK L1196M” value did it give?
**A.** The value was over 10 µM.

**Q.** With `COc1cc(CNC=O)c(C)cc1Nc1ncc(Cl)c(Nc2ccccc2S(=O)(=O)C(C)C)n1` [Example 71, N-(4-((5-chloro-4-((2-(isopropylsulfonyl)phenyl)amino)pyrimidine-2-yl)amino)-5-methoxy-2-methylbenzyl)formamide] as the molecule, how does the “BaF3 EML4 ALK L1196M” value read?
**A.** Its value is 0.062 µM.

**Q.** For `COc1ccc(CCN2CCNCC2)cc1Nc1ncc(Cl)c(Nc2ccccc2S(=O)(=O)C(C)C)n1` [Example 73, 5-chloro-N4-(2-(isopropylsulfonyl)phenyl)-N2-(2-methoxy-5-(2-(piperazine-1-yl)ethyl)phenyl)pyrimidine-2,4-diamine], which “BaF3 EML4 ALK L1196M” value is on record?
**A.** The value was 0.32 µM.

**Q.** `C=C(C)c1cc(OC)c(Nc2ncc(Cl)c(Nc3ccccc3S(=O)(=O)C(C)C)n2)cc1CCN` [Example 75, N2-(5-(2-aminoethyl)-2-methoxy-4-(prop-1-ene-2-yl)phenyl)-5-chloro-N4-(2-(isopropylsulfonyl)phenyl)pyrimidine-2,4-diamine] was tested. Which “BaF3 EML4 ALK L1196M” value did it give?
**A.** The value was 0.39 µM.
